This is an account of results in patent US20260248646A1, “INTRAOCULAR DRUG ADMINISTRATION DEVICE, AGENT RESERVOIR, AND METHOD FOR OPERATING INTRAOCULAR DRUG ADMINISTRATION DEVICE” (TERUMO KABUSHIKI KAISHA, priority 2022, published 2026).

For this data set, the system named is porcine cornea.

Regarding “6-carboxyfluorescein-labeled DNA (16 base pairs) [test substance]”, the “migration depth of test substance at the corneal surface (fluorescence image)” value is “large and small migration depths”.
